Measured values published in patent US20260364080A1, “PYRAZOLO-PYRIMIDINONE COMPOUNDS FOR USE IN METHODS OF INHIBITING WEE1 A KINASE” (Acrivon Therapeutics, Inc., priority 2023, published 2026).

Chains of the proteins cited; added tags and fusions are not shown.
UniProt P30291, whole entry: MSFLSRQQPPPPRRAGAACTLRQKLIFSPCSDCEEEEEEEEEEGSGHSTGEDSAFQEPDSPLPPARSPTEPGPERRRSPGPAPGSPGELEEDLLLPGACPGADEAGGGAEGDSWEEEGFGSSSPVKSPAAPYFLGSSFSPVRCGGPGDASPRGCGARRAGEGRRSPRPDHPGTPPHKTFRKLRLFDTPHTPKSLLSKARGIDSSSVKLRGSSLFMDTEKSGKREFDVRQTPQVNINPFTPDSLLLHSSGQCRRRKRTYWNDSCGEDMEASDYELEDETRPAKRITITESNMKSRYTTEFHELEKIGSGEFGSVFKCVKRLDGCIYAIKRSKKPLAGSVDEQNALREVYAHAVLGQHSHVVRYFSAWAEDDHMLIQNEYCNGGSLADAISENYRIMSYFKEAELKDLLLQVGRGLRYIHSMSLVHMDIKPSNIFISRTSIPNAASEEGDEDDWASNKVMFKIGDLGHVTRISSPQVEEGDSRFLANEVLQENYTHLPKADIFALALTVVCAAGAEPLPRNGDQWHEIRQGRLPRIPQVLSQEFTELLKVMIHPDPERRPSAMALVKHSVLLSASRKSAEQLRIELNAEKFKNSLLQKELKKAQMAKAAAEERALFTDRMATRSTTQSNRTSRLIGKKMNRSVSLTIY

Target: Wee1A kinase (CDK1 Tyr15 phosphorylation in ACHN renal cell carcinoma cells) (Homo sapiens, UniProt P30291)
Test: High-content imaging of pCdk1 Y15, Wee1A kinase target engagement in ACHN cells
Details: read-out: CDK1 Tyr15 Phosphorylation EC50, 4 h treatment, nuclear positivity for pCdk1 Y15 vs DMSO control
Protocol: Each of an ACHN renal cell carcinoma cell line (ATCC) and a DAOY medulloblastoma cell line, and an A427 lung cancer line were cultured in Minimum Essential Medium Eagle supplemented with 10% fetal calf serum (Sigma), 1% Penicillin-Streptomycin and 10 mM HEPES buffer (HyClone). Cell cultures were kept in a humidified incubator at 37 °C and 5% CO2. Cells were routinely tested for Mycoplasma contamination.
For target engagement assessment of Wee1A kinase inhibition, high-content imaging of ACHN renal cell carcinoma cells was used for quantification of CDK1 phosphorylated on tyrosine 15 by immunofluorescence (“IF”). 20,000 cells per well were seeded in tissue culture treated 96 well plates and treated with compounds at concentrations ranging from 7 to 5,000 nM or from 0.3 to 200 nM for 4h. Cells were fixated for 15 minutes in 4% paraformaldehyde solution, washed in PBS and permeabilized using 0.2% Triton X-100. […] The percentage of cells with nuclear positivity for pCdk1 Y^15 compared to DMSO control was determined for each well and drug dose response curves and EC50 values were calculated and visualized using GraphPad Prism. Target engagement for Wee1A kinase can also be measured using the same AlphaLISA assay in OVCAR3 cells, an ovarian cancer cell line. […]

Row | SMILES | EC50
1 | CCn1c(=O)c2cnc(Nc3cccc(-c4ccccc4)c3)nc2n1-c1cccc(OC2CCN(C)CC2)n1 [Compound 339, 6-(3-biphenylylamino)-2-ethyl-1-[6-(1-methyl-4-piperidyloxy)-2-pyridyl]-1,2-dihydro-3H-1,2,5,7-tetraazainden-3-one] | < 0.1 µM
2 | CCn1c(=O)c2cnc(Nc3cccc(-c4ccccc4)c3)nc2n1-c1cccc(OC2CCNCC2)n1 [Compound 338, 6-(3-biphenylylamino)-2-ethyl-1-[6-(4-piperidyloxy)-2-pyridyl]-1,2-dihydro-3H-1,2,5,7-tetraazainden-3-one] | 0.1 to 0.5 µM
